Target: CD44-IgG1Fc (R & D systems), recombinant human CD44 chimeric protein (human) (UniProt P16070)
Experiment: competition ELISA, CD44-IgG1Fc coated at 1 µg/mL, rhPRG4 at 5 µg/mL with HMW HA or MMW HA (competitor, a polysaccharide), detection with Mab 9G3

Substance: recombinant human proteoglycan 4 (rhPRG4), full-length product produced by CHO-M cells (from UniProt Q92954 25-1404) (ligand)
- percent reduction of rhPRG4 binding to CD44 in an excess of HMW or MMW HA: 50%
